For 9 compounds, EC50 results are on record in patent US12465652B2 (AMGEN INC., priority 2017, dated 2025).

Sequences of proteins named here, by UniProt entry; tags and fusion partners are left off. Residues count along the entry.
UniProt P43220, 24-463 limits assumed: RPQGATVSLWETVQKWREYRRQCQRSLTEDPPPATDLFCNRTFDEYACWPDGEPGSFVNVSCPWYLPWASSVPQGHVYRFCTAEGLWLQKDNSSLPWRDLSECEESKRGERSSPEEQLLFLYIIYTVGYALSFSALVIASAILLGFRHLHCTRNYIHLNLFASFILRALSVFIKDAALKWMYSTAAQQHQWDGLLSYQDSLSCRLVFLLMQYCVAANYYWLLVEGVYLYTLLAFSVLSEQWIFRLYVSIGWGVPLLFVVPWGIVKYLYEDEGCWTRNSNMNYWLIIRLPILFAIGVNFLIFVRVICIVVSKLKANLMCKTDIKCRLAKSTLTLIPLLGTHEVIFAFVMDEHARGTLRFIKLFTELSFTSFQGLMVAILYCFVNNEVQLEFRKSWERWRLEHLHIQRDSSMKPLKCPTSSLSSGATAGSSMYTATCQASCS

For one experiment, the target named is T1, human GLP-IR (Homo sapiens, UniProt P43220). The experiment can be described thus: GLP1 activity | EC50 (pM). The source says: Table printed on a drawing sheet, FIG. 1A
Head of the field: GLP1 activity | EC50 (pM)
The patent's description of the figure: FIG. 1A-1B: Synthetic Peptides (FIG. 1A discloses SEQ ID NOS 3948 and 3275-3298 and FIG. 1B discloses SEQ ID NOS 3948 and 3299-3302, all respectively, in order of appearance)
First copying reader's note: The first head row prints a reference sequence (residues at positions 7-35) above the position numbers; two fully empty rows separate groups of peptides.
Where the first naming reader finds the target: passage: CHOK1 cells stably expressing the human GLP-IR were used to measure peptide or recombinant fusion-induced cAMP production
Turning to `CC[C@H](C)[C@H](NC(=O)[C@H](Cc1ccccc1)NC(=O)[C@H](CCC(=O)O)NC(=O)[C@H](CCCCN)NC(=O)[C@H](C)NC(=O)[C@H](C)NC(=O)[C@H](CCC(N)=O)NC(=O)CNC(=O)[C@H](CCC(=O)O)NC(=O)[C@H](CC(C)C)NC(=O)[C@H](Cc1ccc(O)cc1)NC(=O)[C@H](CO)NC(=O)[C@H](CO)NC(=O)[C@@H](NC(=O)[C@H](CC(=O)O)NC(=O)[C@H](CO)NC(=O)[C@@H](NC(=O)[C@H](Cc1ccccc1)NC(=O)[C@@H](NC(=O)CNC(=O)[C@H](Cc1ccc(O)cc1)NC(=O)CNC(=O)[C@@H](N)Cc1c[nH]cn1)[C@@H](C)O)[C@@H](C)O)C(C)C)C(=O)N[C@@H](C)C(=O)N[C@@H](Cc1c[nH]c2ccccc12)C(=O)N[C@@H](CC(C)C)C(=O)N[C@H](C(=O)N[C@@H](CCCCN)C(=O)NCC(=O)O)C(C)C` [3166738#1, HGYGTFTSDVSSYLEGQAAKEFIAWLVKG], a half-maximal response (EC50) required 2.83 nM. Consider `CC[C@H](C)[C@H](NC(=O)[C@H](Cc1ccccc1)NC(=O)[C@H](CCC(=O)O)NC(=O)[C@H](CCCCN)NC(=O)[C@H](C)NC(=O)[C@H](C)NC(=O)[C@H](CCC(N)=O)NC(=O)CNC(=O)[C@H](CCC(=O)O)NC(=O)[C@H](CC(C)C)NC(=O)[C@H](Cc1ccc(O)cc1)NC(=O)[C@H](CO)NC(=O)[C@H](CO)NC(=O)[C@@H](NC(=O)[C@H](CC(=O)O)NC(=O)[C@H](CO)NC(=O)[C@@H](NC(=O)[C@H](Cc1ccccc1)NC(=O)[C@@H](NC(=O)CNC(=O)[C@@H]1CCCN1C(=O)CNC(=O)[C@@H](N)Cc1c[nH]cn1)[C@@H](C)O)[C@@H](C)O)C(C)C)C(=O)N[C@@H](C)C(=O)N[C@@H](Cc1c[nH]c2ccccc12)C(=O)N[C@@H](CC(C)C)C(=O)N[C@H](C(=O)N[C@@H](CCCCN)C(=O)NCC(=O)O)C(C)C` [3166745#1, HGPGTFTSDVSSYLEGQAAKEFIAWLVKG], for which the EC50 (commonly the concentration at which the effect is half-maximal) stood at 0.376 nM.

In turn, `CC[C@H](C)[C@H](NC(=O)[C@H](Cc1ccccc1)NC(=O)[C@H](CCC(=O)O)NC(=O)[C@H](CCCCN)NC(=O)[C@H](C)NC(=O)[C@H](C)NC(=O)[C@H](CCC(N)=O)NC(=O)CNC(=O)[C@H](CCC(=O)O)NC(=O)[C@H](CC(C)C)NC(=O)[C@H](Cc1ccc(O)cc1)NC(=O)[C@H](CO)NC(=O)[C@H](CO)NC(=O)[C@@H](NC(=O)[C@H](CC(=O)O)NC(=O)[C@H](CO)NC(=O)[C@@H](NC(=O)[C@H](Cc1ccccc1)NC(=O)[C@@H](NC(=O)CNC(=O)[C@H](CO)NC(=O)CNC(=O)[C@@H](N)Cc1c[nH]cn1)[C@@H](C)O)[C@@H](C)O)C(C)C)C(=O)N[C@@H](C)C(=O)N[C@@H](Cc1c[nH]c2ccccc12)C(=O)N[C@@H](CC(C)C)C(=O)N[C@H](C(=O)N[C@@H](CCCCN)C(=O)NCC(=O)O)C(C)C` [3166747#1, HGSGTFTSDVSSYLEGQAAKEFIAWLVKG] gave an EC50 of 0.426 nM.

Another experiment concerns the target T1, human GLP-IR. The experiment can be described thus: GLP1 activity | EC50 (M). The source says:
Table printed on a drawing sheet, FIG. 1A Head of the field: GLP1 activity | EC50 (M) The patent's description of the figure: FIG. 1A-1B: Synthetic Peptides (FIG. 1A discloses SEQ ID NOS 3948 and 3275-3298 and FIG. 1B discloses SEQ ID NOS 3948 and 3299-3302, all respectively, in order of appearance) First copying reader's note: The first head row prints a reference sequence (residues at positions 7-35) above the position numbers; two fully empty rows separate groups of peptides. Where the first naming reader finds the target: passage: CHOK1 cells stably expressing the human GLP-IR were used to measure peptide or recombinant fusion-induced cAMP production
Compound `CC[C@H](C)[C@H](NC(=O)[C@H](Cc1ccccc1)NC(=O)[C@H](CCC(=O)O)NC(=O)[C@H](CCCCN)NC(=O)[C@H](C)NC(=O)[C@H](C)NC(=O)[C@H](CCC(N)=O)NC(=O)CNC(=O)[C@H](CCC(=O)O)NC(=O)[C@H](CC(C)C)NC(=O)[C@H](Cc1ccc(O)cc1)NC(=O)[C@H](CO)NC(=O)[C@H](CO)NC(=O)[C@@H](NC(=O)[C@H](CC(=O)O)NC(=O)[C@H](CO)NC(=O)[C@@H](NC(=O)[C@H](Cc1ccccc1)NC(=O)[C@@H](NC(=O)CNC(=O)[C@@H](NC(=O)CNC(=O)[C@@H](N)Cc1c[nH]cn1)C(C)C)[C@@H](C)O)[C@@H](C)O)C(C)C)C(=O)N[C@@H](C)C(=O)N[C@@H](Cc1c[nH]c2ccccc12)C(=O)N[C@@H](CC(C)C)C(=O)N[C@H](C(=O)N[C@@H](CCCCN)C(=O)NCC(=O)O)C(C)C` [3166736#1, HGVGTFTSDVSSYLEGQAAKEFIAWLVKG] came in with an EC50 of 0.0838 nM. Compound `CC[C@H](C)[C@H](NC(=O)[C@H](Cc1ccccc1)NC(=O)[C@H](CCC(=O)O)NC(=O)[C@H](CCCCN)NC(=O)[C@H](C)NC(=O)[C@H](C)NC(=O)[C@H](CCC(N)=O)NC(=O)CNC(=O)[C@H](CCC(=O)O)NC(=O)[C@H](CC(C)C)NC(=O)[C@H](Cc1ccc(O)cc1)NC(=O)[C@H](CO)NC(=O)[C@H](CO)NC(=O)[C@@H](NC(=O)[C@H](CC(=O)O)NC(=O)[C@H](CO)NC(=O)[C@@H](NC(=O)[C@H](Cc1ccccc1)NC(=O)[C@@H](NC(=O)CNC(=O)[C@H](CCCCN)NC(=O)CNC(=O)[C@@H](N)Cc1c[nH]cn1)[C@@H](C)O)[C@@H](C)O)C(C)C)C(=O)N[C@@H](C)C(=O)N[C@@H](Cc1c[nH]c2ccccc12)C(=O)N[C@@H](CC(C)C)C(=O)N[C@H](C(=O)N[C@@H](CCCCN)C(=O)NCC(=O)O)C(C)C` [3166742#1, HGKGTFTSDVSSYLEGQAAKEFIAWLVKG] returned an EC50 of 6.07 nM.

The compound `CC[C@H](C)[C@H](NC(=O)[C@H](Cc1ccccc1)NC(=O)[C@H](CCC(=O)O)NC(=O)[C@H](CCCCN)NC(=O)[C@H](C)NC(=O)[C@H](C)NC(=O)[C@H](CCC(N)=O)NC(=O)CNC(=O)[C@H](CCC(=O)O)NC(=O)[C@H](CC(C)C)NC(=O)[C@H](Cc1ccc(O)cc1)NC(=O)[C@H](CO)NC(=O)[C@H](CO)NC(=O)[C@@H](NC(=O)[C@H](CC(=O)O)NC(=O)[C@H](CO)NC(=O)[C@@H](NC(=O)[C@H](Cc1ccccc1)NC(=O)[C@@H](NC(=O)[C@@H](NC(=O)[C@H](CCC(=O)O)NC(=O)CNC(=O)[C@@H](N)Cc1c[nH]cn1)C(C)C)[C@@H](C)O)[C@@H](C)O)C(C)C)C(=O)N[C@@H](C)C(=O)N[C@@H](Cc1c[nH]c2ccccc12)C(=O)N[C@@H](CC(C)C)C(=O)N[C@H](C(=O)N[C@@H](CCCCN)C(=O)NCC(=O)O)C(C)C` [3166966#1, HGEVTFTSDVSSYLEGQAAKEFIAWLVKG] registered an EC50 of 55.3 nM. As to `CC[C@H](C)[C@H](NC(=O)CNC(=O)[C@@H](N)Cc1c[nH]cn1)C(=O)NCC(=O)N[C@H](C(=O)N[C@@H](Cc1ccccc1)C(=O)N[C@H](C(=O)N[C@@H](CO)C(=O)N[C@@H](CC(=O)O)C(=O)N[C@H](C(=O)N[C@@H](CO)C(=O)N[C@@H](CO)C(=O)N[C@@H](Cc1ccc(O)cc1)C(=O)N[C@@H](CC(C)C)C(=O)N[C@@H](CCC(=O)O)C(=O)NCC(=O)N[C@@H](CCC(N)=O)C(=O)N[C@@H](C)C(=O)N[C@@H](C)C(=O)N[C@@H](CCCCN)C(=O)N[C@@H](CCC(=O)O)C(=O)N[C@@H](Cc1ccccc1)C(=O)N[C@H](C(=O)N[C@@H](C)C(=O)N[C@@H](Cc1c[nH]c2ccccc12)C(=O)N[C@@H](CC(C)C)C(=O)N[C@H](C(=O)N[C@@H](CCCCN)C(=O)NCC(=O)O)C(C)C)[C@@H](C)CC)C(C)C)[C@@H](C)O)[C@@H](C)O` [3166743#1, HGIGTFTSDVSSYLEGQAAKEFIAWLVKG], a half-maximal effect (EC50) was put at 0.0538 nM. As for `CC[C@H](C)[C@H](NC(=O)[C@H](Cc1ccccc1)NC(=O)[C@H](CCC(=O)O)NC(=O)[C@H](CCCCN)NC(=O)[C@H](C)NC(=O)[C@H](C)NC(=O)[C@H](CCC(N)=O)NC(=O)CNC(=O)[C@H](CCC(=O)O)NC(=O)[C@H](CC(C)C)NC(=O)[C@H](Cc1ccc(O)cc1)NC(=O)[C@H](CO)NC(=O)[C@H](CO)NC(=O)[C@@H](NC(=O)[C@H](CC(=O)O)NC(=O)[C@H](CO)NC(=O)[C@@H](NC(=O)[C@H](Cc1ccccc1)NC(=O)[C@@H](NC(=O)CNC(=O)[C@H](Cc1c[nH]cn1)NC(=O)CNC(=O)[C@@H](N)Cc1c[nH]cn1)[C@@H](C)O)[C@@H](C)O)C(C)C)C(=O)N[C@@H](C)C(=O)N[C@@H](Cc1c[nH]c2ccccc12)C(=O)N[C@@H](CC(C)C)C(=O)N[C@H](C(=O)N[C@@H](CCCCN)C(=O)NCC(=O)O)C(C)C` [3166741#1, HGHGTFTSDVSSYLEGQAAKEFIAWLVKG], the EC50 was 0.00537 nM.

In turn, `CC[C@H](C)[C@H](NC(=O)[C@H](Cc1ccccc1)NC(=O)[C@H](CCC(=O)O)NC(=O)[C@H](CCCCN)NC(=O)[C@H](C)NC(=O)[C@H](C)NC(=O)[C@H](CCC(N)=O)NC(=O)CNC(=O)[C@H](CCC(=O)O)NC(=O)[C@H](CC(C)C)NC(=O)[C@H](Cc1ccc(O)cc1)NC(=O)[C@H](CO)NC(=O)[C@H](CO)NC(=O)[C@@H](NC(=O)[C@H](CC(=O)O)NC(=O)[C@H](CO)NC(=O)[C@@H](NC(=O)[C@H](Cc1ccccc1)NC(=O)[C@@H](NC(=O)CNC(=O)[C@H](CC(=O)O)NC(=O)CNC(=O)[C@@H](N)Cc1c[nH]cn1)[C@@H](C)O)[C@@H](C)O)C(C)C)C(=O)N[C@@H](C)C(=O)N[C@@H](Cc1c[nH]c2ccccc12)C(=O)N[C@@H](CC(C)C)C(=O)N[C@H](C(=O)N[C@@H](CCCCN)C(=O)NCC(=O)O)C(C)C` [3166734#1, HGDGTFTSDVSSYLEGQAAKEFIAWLVKG] came in with an EC50 of 0.0044 nM.
